Consider 28 compounds from PubChem BioAssay AID1377 (University of Pittsburgh Molecular Library Screening Center, 2008).

This is a selection; strong and weak results do not stand in their true shares. Activity calls are given as the source filed them.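 Rule for the calls: active = activation, scaled between plate controls, above about 75% (limit read from the data); inactive = activation under that limit.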

The nature of this assay: inhibitors of zVAD-triggered necroptosis, primary screen, L929 cells (AID 1377).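 Note: 0% = zVAD with DMSO and 100% = DMSO alone without zVAD.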 As to conditions: ATP luminescence, 24 h, at 10 µM, stronger effect = higher value; with zVAD 60 µM unless noted.
With `CS(=O)(=O)c1cc([N+](=O)[O-])c2no[n+]([O-])c2c1`, the viability rescue was inactive: -0.49%.

With `CN(C(=O)Cc1ccccc1)[C@@H]1CC[C@]2(CCCO2)C[C@H]1N1CCCC1`, the viability rescue is inactive: -0.71%.

Consider `CCOP1(=S)c2c(C)nn(CCC#N)c2N=C(c2ccc(F)cc2)N1C` (stereo not drawn), for which the viability rescue is inactive: -0.38% [with zVAD 20 µM].

As to `O=[N+]([O-])c1ccc2c(c1)nnn2O`, the viability rescue was inactive: 1.4%.

As for `NC(=O)Nc1ccc([As](=O)(O)O)cc1`, the viability rescue is inactive: -0.41%.

On to `O=[As](O)(c1cccc(O)c1)c1cccc(O)c1`, for which the viability rescue is inactive: 0.53%.

Take `Cc1cccc(OCC(=O)OC2CN3CCC2CC3)c1` (stereo not drawn): the viability rescue is inactive: 0.08%.

On to `O=C(OC1CN2CCC1CC2)c1ccc(Cl)cc1` (stereo not drawn), for which the viability rescue was inactive: 0.34%.

Take `O=[As](O)(O)c1cccnc1`: the viability rescue was inactive: -0.18%.

As to `COc1cc(C2NCCC3(OCCO3)C2(C)C)cc(OC)c1OC` (stereo not drawn), the viability rescue is inactive: 0.11%.

With `Nc1cccc2c([As](=O)(O)O)cccc12`, the viability rescue was inactive: 0.91%.

As to `Cc1ccc(NCCc2c([N+](=O)[O-])cc([N+](=O)[O-])cc2[N+](=O)[O-])cc1`, the viability rescue is inactive: 0.32%.

Take `CCCOP(=S)(Nc1nc(N)cc(=O)[nH]1)OCCC`: the viability rescue was inactive: 0.54%.

With `CC(C)(C)C(=O)NC(Sc1ncccn1)C(Cl)(Cl)Cl` (stereo not drawn), the viability rescue is inactive: 0.12%.

As to `Clc1n[nH]nc1-c1nn[nH][15n]1`, the viability rescue was inactive: -0.37% [with zVAD 20 µM].

For the compound `O=P1(Nc2ccccn2)COc2ccccc2OC1`, the viability rescue is inactive: 0.04% [with zVAD 20 µM].

On to `CCOP(=O)(Nc1ccc(C)cn1)OCC`, for which the viability rescue is inactive: 0.55%.

As for `CC(C)/C=N\N=C(\N)N[N+](=O)[O-]`, the viability rescue is inactive: 0.73%.

As for `CC1(CBr)Cn2c(nc3ccccc3c2=O)S1` (stereo not drawn), the viability rescue is inactive: -0.45%.

As for `O=[As](O)(c1ccccc1Br)c1ccccc1Br`, the viability rescue was inactive: 0.1%.

For the compound `O=C(/C=C/c1ccccc1)OC1CN2CCC1CC2` (stereo not drawn), the viability rescue was inactive: 0.15%.

With `CC1CCC(C(C)C)C(OP(=O)(Nc2ccccn2)c2ccccc2)C1` (stereo not drawn), the viability rescue was inactive: -0.21%.

As for `Cc1nn(-c2ccccc2)c2c1P(=O)(N1CCOCC1)N(C)C(c1ccccc1)=N2` (stereo not drawn), the viability rescue was inactive: -0.47% [with zVAD 20 µM].

As to `Nc1cccc([As](=O)(O)c2ccccc2)c1`, the viability rescue is inactive: -1.24%.

`O=P1(Nc2ccc(Br)cn2)COc2ccccc2OC1`: the viability rescue was inactive: 2.05% [with zVAD 20 µM].

As for `O=[As](O)(c1cccs1)c1cccs1`, the viability rescue is inactive: 0.06%.

In the case of `Cc1ccc(OCC(=O)OC2CN3CCC2CC3)cc1` (stereo not drawn), the viability rescue is inactive: 0.29% [with zVAD 20 µM].

As for `O=P1(Nc2ncccn2)COc2ccccc2OC1`, the viability rescue was inactive: 1.05% [with zVAD 20 µM].
